The source of these data is patent US7799540B2, “Method of producing lycopene through the fermentation of selected strains of Blackeslea trispora, formulations and uses of the lycopene thus obtained” (Vitatene, S.A., priority 2001, dated 2010).

The test system of this test is B. trispora spores. The test can be described thus: Mutation of B. trispora spores with mutagenic agents: mortality rate. In kind it is cell-based, Blakeslea trispora. The note with it: 10^6 spores/ml, 250 μg/ml of NTG, 0.1 M sodium citrate buffer pH 5.0, room temperature, 30 minutes.

As to `CN(N=O)C(=N)N[N+](=O)[O-]`, the mortality rates result was “around 95%”.
